The source of these data is US7112579B2, “26,27-Homologated-20-EPI-2-alkyl-19-nor-vitamin D compounds” (Wisconsin Alumni Research Foundation, priority 1997, dated 2006).

This assay deals with human promyelocyte HL-60 cells. Description: Differentiation of HL-60 promyelocytes into monocytes (NBT reduction). It counts as cell-based. The following applies: analog average ED50 / ED50 for 1α,25-(OH)2D3. As for the experimental part:
The differentiation of HL-60 promyelocytic into monocytes was determined as described by Ostrem et al (J. Biol. Chem. 262, 14164–14171, 1987).
In the next assay, the cellular activity of the synthesized compounds was established by studying their ability to induce differentiation of human promyelocyte HL-60 cells into monocytes.
The differentiation of HL-60 promyelocytic into monocytes was determined as described by Ostrem et al (J. Biol. Chem. 262 14164–14171, 1987).

With `C=C1/C(=C\C=C2/CCC[C@]3(C)[C@@H]([C@H](C)CCCC(C)(C)O)CC[C@@H]23)C[C@@H](O)C[C@@H]1O` [1α,25-(OH)2D3, 1α,25-dihydroxyvitamin D3, reference compound], the “HL-60 Differentiation Activity ratio” value reads like this: (Table 6) 1; (Table 8) 1.
